According to US4256883A, “Pyridoza prostacyclin analogues and N-oxides thereof” (Research Corporation, priority 1979, dated 1981):

Assay: t1/2 in saline at 25°
Conditions: 25° C.

7,8-dihydro-6,9-pyridaza prostacyclin [XXIII]
t1/2 Saline (25°): > 24 h
